Measured values as given in paper PMC6426815.

Tests used:
[1] = molecular target: tau (human (endogenous in brain tissue)) (UniProt P10636); experiment: co-IP; total tau (Tau 5 antibody) immunoprecipitated from human control and late AD brain lysate, S6 detected by blot; lysate without antibody as beads only lanes; n = 3
[2] = molecular target: ribosomal protein S6 (human (endogenous in brain tissue)) (UniProt P62753); experiment: co-IP; S6 immunoprecipitated from human control and late AD brain lysate, tau detected by blot; lysate without antibody as beads only lanes; n = 3

Substance	percent reduction of S6 co-precipitated with tau, late AD compared to control [1] [%]	fold increase of tau co-precipitated with S6, late AD relative to control [2] [fold]
ribosomal protein S6 (from UniProt P62753 1-249) (natural protein; other documents disagree on this pair)	60	–
tau (from UniProt P10636-8 1-441) (natural protein; other documents disagree on this pair)	–	2
